Bioassay records as filed in PubChem.
Only some compounds are listed: those with a hit (about 1.9% of all), similar ones and a draw of the others.
ARNT-TACC3 inh = disruptors of human ARNT/TACC3 interaction; Q9Y6A5; AlphaScreen His-ARNT PAS-B/GST-TACC3 binding, luminescence; TACC3 fragment carries E629A point mutation; inhibition, % at 9.99 µM; hit rate 0.66% among 390,000; AID 623870;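 active = mean inhibition of replicates at least 50% and at least half of replicates each reaching 50%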
FGF22 binding = FGF22 (human) thermal shift binding. Q9HCT0. AID 651658. recombinant FGF22 thermal shift, SYPRO orange fluorescence; percent of sucrose octasulfate shift, DMSO zero. hit rate 1.5% among 340,000. activity (Tm shift, normalised), % at 9.99 µM;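 active = mean Tm shift, scaled 0 neutral to 100 positive control, at about 1.3% or above, every replicate too, limit read from the data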
PDI turbidity = blocks human protein disulfide isomerase activity | P07237 | PDI insulin aggregation turbidity, A650, 90 min | inhibition, % at 10 µM | hit rate 0.052% among 350,000;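 active = mean inhibition across replicates of 30% or more, whatever share of single replicates reach that level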
PglD inh = inhibitors of Campylobacter jejuni PglD acetyltransferase; purified PglD enzyme, DTNB colorimetric CoA detection; inhibition, % at 12.5 µM; hit rate 0.098% among 360,000; in the data active = inhibition above about 16%, passing the limit was not always enough
UUG fidelity = modulators of yeast start codon fidelity, primary screen, whole organism, S. cerevisiae, single point, plate reader; S. cerevisiae UUG-firefly luciferase reporter, luminescence/redox ratio; activity score, % at 18.7 µM; actives 0.13% (n = 350,000);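 active means replicate mean at a twofold rise or more, about +100% in these data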;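 further: firefly luciferase made from a UUG start codon reports start codon fidelity; reporter light over untreated wells divided by growth signal over untreated wells; some hits fall short of that in this replicate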
ERp5 inh = ERp5 (human) disulfide isomerase inhibition; inhibition, % at 9.99 µM; hit rate 0.05% among 350,000; Q15084; AID 651711; ERp5 insulin aggregation, absorbance 650 nm, 90 min;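 active = mean replicate inhibition above about 25%, with every replicate also reaching it, limit read from the data, passing the limit was not always enough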
Each line names hits and unclear results; the compound was inactive in the other large screens.

Cc1ccc(S(=O)(=O)Nc2ccc3c(c2)CC(=O)N([C@H](C)CO)C[C@H](C)[C@@H](CN(C)S(=O)(=O)c2cccs2)O3)cc1	none (no result: PDI turbidity)
O=C(Nc1ccccc1)Nc1cccc(C(F)(F)F)c1	FGF22 binding 44
CC(=O)Nc1cccc(C(=O)OCc2ccc([N+](=O)[O-])cc2)c1	FGF22 binding 43 (no result: PglD inh, UUG fidelity)
C[C@H](CO)N1C[C@H](C)[C@H](CN(C)Cc2ccncc2)Oc2c(NC(=O)C3CCCCC3)cccc2C1=O	none (no result: PDI turbidity)
COc1cc(/C=C2/SC(=O)N(CC(=O)N3CCCC3)C2=O)ccc1Oc1ccc([N+](=O)[O-])cn1	none
CCN1C(=O)S/C(=C/c2ccc(Oc3ccc([N+](=O)[O-])cn3)c(OC)c2)C1=O	FGF22 binding 43 (no result: PglD inh, UUG fidelity)
CO[C@H]1CN(C)C(=O)c2cc(NS(=O)(=O)c3cn(C)cn3)ccc2OC[C@@H](C)N(C)C[C@H]1C	none (no result: FGF22 binding, PDI turbidity, UUG fidelity, ERp5 inh)
CCOC(=O)C1CCN(c2c(NCCCN(C)C3CCCCC3)c(=O)c2=O)CC1	PDI turbidity 34
CCOC(=O)C1CCN(c2c(NCCCN3CCCCC3)c(=O)c2=O)CC1	none
C=CCc1cccc(CNc2c(C)cc(C)cc2C)c1O	FGF22 binding 44 (no result: PglD inh, UUG fidelity)
COCCNC(=S)N=Nc1c(O)[nH]c2c(C)cc(C)cc12	FGF22 binding 44 (no result: PglD inh, UUG fidelity)
C/C=C/c1ccc([C@@H]2[C@H]3CN(C(=O)Nc4ccccc4F)CC(=O)N3[C@H]2CO)cc1	none (no result: ARNT-TACC3 inh, PDI turbidity, PglD inh, UUG fidelity)
CCOC(=O)C1=C(c2ccccc2)NC(=S)NC1C (stereo not given)	none (no result: FGF22 binding, ERp5 inh)
CCOC(=O)C1=C(C)NC(=S)NC1C (stereo not given)	FGF22 binding 44 (no result: ARNT-TACC3 inh)
COCC(=O)N(C)C[C@H]1Oc2cc(C#CCC3CCCC3)ccc2S(=O)(=O)N([C@H](C)CO)C[C@H]1C	none (no result: PDI turbidity)
CCCCn1c(N)c(Sc2ccc(C)cc2)c(=O)[nH]c1=O	none (no result: FGF22 binding, ERp5 inh)
CCCn1c(N)c(Sc2ccc(C)cc2)c(=O)n(CCC)c1=O	FGF22 binding 43 (no result: PglD inh, UUG fidelity)
CCC(=O)Nc1ccc2c(c1)C(=O)N(C)C[C@@H](OC)[C@@H](C)CN(C(=O)C1CC1)[C@@H](C)CO2	none (no result: PDI turbidity)
Cc1ccccc1P(=O)(c1ccccc1)c1ccccc1C	FGF22 binding 44 (no result: ARNT-TACC3 inh)
COc1ccccc1P(=O)(c1ccccc1)c1ccccc1	none
O=C(CCl)Nc1ccccc1Sc1ccc(Cl)cc1	PDI turbidity 50 (no result: FGF22 binding, ERp5 inh)
CC(=O)N1CCN(CC(=O)Nc2ccccc2Sc2ccc(Cl)cc2)CC1	none (no result: PglD inh, UUG fidelity)
COc1cnc(-c2ccccn2)nc1Oc1ccc(Cl)c2ccccc12	ARNT-TACC3 inh 17 (no result: FGF22 binding, ERp5 inh)
Cc1ccc(S(=O)(=O)Oc2cccc([N+](=O)[O-])c2)cc1	FGF22 binding 44
O=[N+]([O-])c1cccc(S(=O)(=O)c2cccc([N+](=O)[O-])c2)c1	none (no result: PglD inh, UUG fidelity)
O=C(C[C@H]1CC[C@H]2[C@@H](COC[C@@H](O)CN2S(=O)(=O)c2cccc(F)c2)O1)NCc1ccc2c(c1)OCO2	none (no result: PDI turbidity, UUG fidelity)
COCCNc1nc(NCc2ccc(C(C)C)cc2)c2sccc2n1	FGF22 binding 23 (no result: ARNT-TACC3 inh)
COCCNc1nc(NCc2cccc(OC)c2)c2sccc2n1	none (no result: ARNT-TACC3 inh)
C=CCc1c(C)nc(C)nc1N/N=C/c1ccccc1O	ARNT-TACC3 inh 64 (no result: FGF22 binding, ERp5 inh)
C#Cc1cccc(C(=O)N(Cc2cccnc2)CC2CCCN(C3CCCCC3)C2)c1 (stereo not given)	FGF22 binding 43 (no result: ARNT-TACC3 inh)
CC(=O)Nc1ccc(S(=O)(=O)N2CCCCC2c2cccnc2)cc1 (stereo not given)	none (no result: ARNT-TACC3 inh, FGF22 binding, ERp5 inh)
O=C(Nc1ccc(S(=O)(=O)N2CCCCC2c2cccnc2)cc1)c1c(F)cccc1F (stereo not given)	FGF22 binding 44 (no result: ARNT-TACC3 inh, PglD inh, UUG fidelity)
O=S(=O)(c1ccccc1)N1CCCCN2[C@H](C1)[C@@H](c1ccc(-c3cncnc3)cc1)[C@@H]2CO	none (no result: PDI turbidity)
CCCC(=O)Nc1ccc2c(c1)C(=O)N(C)C[C@H](OC)[C@H](C)CN(C)[C@@H](C)CO2	none (no result: PDI turbidity)
Cc1cc(C)nc(NC(=S)Nc2ccc(Br)cc2Cl)c1	FGF22 binding 43 (no result: PglD inh, UUG fidelity)
Cc1cc(C)nc(NC(=S)Nc2cccc(Cl)c2Cl)c1	none
C[C@@H]1CN([C@H](C)CO)S(=O)(=O)c2ccc(-c3ccccc3)cc2O[C@H]1CN(C)C(=O)Cc1ccccc1	none (no result: PDI turbidity)
C[C@]12CC[C@H]3C(=CCc4cc(O)ccc43)[C@@H]1CCC2=O	PDI turbidity 33
C[C@]12C[C@H](O)[C@@H]3c4ccc(O)cc4CCC3[C@@H]1CCC2=O (stereo not given in full)	none
Cc1nc(N)sc1C(=O)N/N=C/c1ccc([N+](=O)[O-])cc1	none (no result: ARNT-TACC3 inh)
COc1cc(/C=N\NC(=O)c2sc(N)nc2C)cc(OC)c1OC	ARNT-TACC3 inh 49 (no result: FGF22 binding, ERp5 inh)
Cc1ccnc2nc(C(=O)OCC(=O)NCCc3ccc(Cl)cc3)nn12	none (no result: FGF22 binding, ERp5 inh)
Cc1cc(Cl)ccc1NC(=O)COC(=O)c1nc2nccc(C)n2n1	FGF22 binding 43 (no result: PglD inh, UUG fidelity)
CCS(=O)(=O)N1CC2(CN(Cc3ccccc3F)[C@H](CO)c3[nH]c4cc(OC)ccc4c32)C1	none (no result: ARNT-TACC3 inh, PDI turbidity, PglD inh, UUG fidelity)
C=CC[C@@H](CC(=O)N[C@H](CO)Cc1ccccc1)C(=O)N[C@@H](C)COC(=O)[C@@H](CC=C)Cc1ccc(F)cc1	none
C=CCC[C@@H](Cc1ccc(F)cc1)C(=O)OC[C@@H](C)NC(=O)[C@@H](CC=C)CC(=O)N[C@H](CO)Cc1ccccc1	FGF22 binding 1.4
CC1CN(C(=O)c2cc3cc([N+](=O)[O-])ccc3s2)CC(C)O1 (stereo not given)	FGF22 binding 44 (no result: PglD inh, UUG fidelity)
CC1CN(C(=O)c2cc3cc([N+](=O)[O-])ccc3oc2=O)CC(C)O1 (stereo not given)	none
COc1ccc(CN2C[C@@H](O)COC[C@H]3O[C@H](CC(=O)NCCN4CCCC4)CC[C@@H]32)cc1	none (no result: PDI turbidity)
COC(Cc1n[nH]c(=S)n1-c1ccc(Cl)cc1)OC	ARNT-TACC3 inh 51 (no result: FGF22 binding, ERp5 inh)
CC(=O)OCC(=O)C1=CCC2C3CCC4=CC(=O)C=CC4(C)C3(F)C(OC(C)=O)CC12C (stereo not given)	FGF22 binding 43
CN1c2ccc(-c3ccccc3)cc2[C@@H]2[C@@H](CCN2C(=O)c2ccc(F)cc2)[C@@H]1CO	none (no result: PDI turbidity)
COC(=O)[C@@H]1[C@@H](CO)[C@@H]2Cn3c(ccc(-c4cccc(F)c4)c3=O)[C@@H]2N1Cc1ccncc1	none (no result: ARNT-TACC3 inh, FGF22 binding, PDI turbidity, PglD inh, UUG fidelity)
O=C1C(=O)c2ccccc2C(O)=C1CCCCl	ARNT-TACC3 inh 37 (no result: FGF22 binding, ERp5 inh)
CC(C)NC(=O)N(C)C[C@H]1Oc2ccc(NC(=O)Nc3ccc(F)cc3)cc2CC(=O)N([C@@H](C)CO)C[C@@H]1C	none (no result: PDI turbidity)
COc1cccc(C(=O)NCC(=O)N/N=C/c2cccc(OC(=O)c3ccc([N+](=O)[O-])cc3)c2)c1	FGF22 binding 43 (no result: ARNT-TACC3 inh, PglD inh, UUG fidelity)
O=C(CNC(=O)c1ccc([N+](=O)[O-])cc1)N/N=C\c1ccc(OC(=O)c2ccccc2)cc1	none (no result: FGF22 binding, ERp5 inh)
OCCC1CN(CCCn2cccn2)CCN1Cc1ccccc1 (stereo not given)	FGF22 binding 43
Cn1cc(CN2CCN(CCc3ccccc3)C(CCO)C2)cn1 (stereo not given)	FGF22 binding 44 (no result: PglD inh, UUG fidelity)
